In ChEMBL document CHEMBL3351413, “Development of quinone analogues as dynamin GTPase inhibitors” (Eur J Med Chem, 2014):

Experiment: Inhibition of phosphatidylserine-stimulated GTPase activity of sheep brain Dynamin 1 expressed in Sf21 cells assessed as inhibition of orthophosphate release from GTP up to 300 uM by malachite green method
Settings: Ovis aries
Summary of the method: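 DynI at 50 nM final was stimulated with phosphatidylserine liposomes for 30 min. Orthophosphate released from GTP was detected colorimetrically by Malachite Green. Compounds came from 30 mM DMSO stocks diluted in 50% DMSO/20 mM Tris-HCl pH 7.4; final DMSO was at most 3.3%.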

SMILES	inhibition
O=C1C=C(NCCCl)C(=O)C=C1NCCCl	inactive
O=C1C=C(NCCBr)C(=O)C=C1NCCBr	inactive

The source made the active and inactive calls. The rule behind the calls is not given here.
